Values of other authors as cited in patent US10413612B2, “Method of treating cancer with a biomaterial and a toll-like receptor agonist” (Dana-Farber Cancer Institute, Inc., priority 2016, dated 2019).
“And” between values parts separate entries of the source, which are not always exact repeats. Equal entries are not always repeated.

Experiments:
TLR8 = target: T1, TLR8 (Homo sapiens, UniProt Q9NR97); settings: cited from earlier work
T1 construct: expressed in transfected cells; host or cells: HEK293
T1 sequence (Q9NR97 27-1041): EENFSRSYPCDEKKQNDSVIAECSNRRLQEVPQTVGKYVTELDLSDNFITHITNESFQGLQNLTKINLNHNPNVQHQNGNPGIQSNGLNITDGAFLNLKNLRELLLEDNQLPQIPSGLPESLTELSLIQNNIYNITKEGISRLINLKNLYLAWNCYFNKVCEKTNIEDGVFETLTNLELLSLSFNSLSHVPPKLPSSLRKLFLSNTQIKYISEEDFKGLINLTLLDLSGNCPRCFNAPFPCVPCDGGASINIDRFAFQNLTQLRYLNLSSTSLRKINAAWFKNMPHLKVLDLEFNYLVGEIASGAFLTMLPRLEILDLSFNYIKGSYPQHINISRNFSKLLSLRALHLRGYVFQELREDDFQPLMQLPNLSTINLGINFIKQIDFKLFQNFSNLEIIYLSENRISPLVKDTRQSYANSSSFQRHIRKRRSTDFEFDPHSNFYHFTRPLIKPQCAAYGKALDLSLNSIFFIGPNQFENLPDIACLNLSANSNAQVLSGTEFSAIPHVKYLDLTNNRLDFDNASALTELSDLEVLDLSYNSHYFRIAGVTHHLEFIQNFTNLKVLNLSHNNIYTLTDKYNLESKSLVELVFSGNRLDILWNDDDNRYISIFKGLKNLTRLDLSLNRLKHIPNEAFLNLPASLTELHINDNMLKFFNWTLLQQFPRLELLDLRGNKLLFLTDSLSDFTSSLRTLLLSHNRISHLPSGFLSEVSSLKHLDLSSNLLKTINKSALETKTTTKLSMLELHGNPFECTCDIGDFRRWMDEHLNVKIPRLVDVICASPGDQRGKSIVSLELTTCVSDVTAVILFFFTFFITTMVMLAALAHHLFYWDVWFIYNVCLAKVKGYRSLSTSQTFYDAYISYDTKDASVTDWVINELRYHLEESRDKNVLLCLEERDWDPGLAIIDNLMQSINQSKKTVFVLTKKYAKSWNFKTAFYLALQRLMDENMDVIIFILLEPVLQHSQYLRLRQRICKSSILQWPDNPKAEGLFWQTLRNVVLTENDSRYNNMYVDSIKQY

TLR7 = target: T2, TLR7 (Homo sapiens, UniProt Q9NYK1); settings: cited from earlier work
T2 construct: expressed in transfected cells; host or cells: HEK293
T2 sequence (Q9NYK1 27-1049): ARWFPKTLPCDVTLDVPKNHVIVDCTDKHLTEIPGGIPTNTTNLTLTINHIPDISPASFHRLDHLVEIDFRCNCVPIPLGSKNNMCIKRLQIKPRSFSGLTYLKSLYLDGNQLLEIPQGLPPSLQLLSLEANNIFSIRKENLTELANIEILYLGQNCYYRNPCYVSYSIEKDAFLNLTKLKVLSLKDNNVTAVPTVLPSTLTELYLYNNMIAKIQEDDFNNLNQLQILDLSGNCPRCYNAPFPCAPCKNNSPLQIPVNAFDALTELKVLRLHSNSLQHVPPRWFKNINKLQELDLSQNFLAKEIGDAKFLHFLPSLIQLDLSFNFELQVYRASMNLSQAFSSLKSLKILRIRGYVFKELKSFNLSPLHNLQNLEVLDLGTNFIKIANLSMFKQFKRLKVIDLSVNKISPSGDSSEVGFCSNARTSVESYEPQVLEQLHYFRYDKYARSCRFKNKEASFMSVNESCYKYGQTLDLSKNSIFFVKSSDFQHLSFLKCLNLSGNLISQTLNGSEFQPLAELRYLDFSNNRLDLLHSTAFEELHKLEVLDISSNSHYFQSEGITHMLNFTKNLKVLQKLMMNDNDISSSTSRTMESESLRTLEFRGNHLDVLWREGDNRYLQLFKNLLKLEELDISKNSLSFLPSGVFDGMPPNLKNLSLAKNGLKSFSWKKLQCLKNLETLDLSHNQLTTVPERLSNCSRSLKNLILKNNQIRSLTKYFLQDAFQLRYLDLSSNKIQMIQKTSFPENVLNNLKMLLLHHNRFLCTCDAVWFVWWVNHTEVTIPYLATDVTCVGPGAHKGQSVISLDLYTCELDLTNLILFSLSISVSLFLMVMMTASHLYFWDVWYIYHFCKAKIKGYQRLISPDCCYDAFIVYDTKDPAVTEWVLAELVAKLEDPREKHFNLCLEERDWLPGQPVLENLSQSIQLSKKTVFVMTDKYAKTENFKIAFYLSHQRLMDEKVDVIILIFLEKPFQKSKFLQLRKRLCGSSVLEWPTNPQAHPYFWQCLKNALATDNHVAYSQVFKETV

CCOCc1nc2c(N)nc3ccccc3c2[nH]1 [CL097]
concentration inducing NF-κB activation (TLR8): 4 μM and 1 μg/ml | concentration inducing NF-κB activation (TLR7): 0.4 μM and 0.1 μg/ml
